Consider seven compounds from patent US10961200B2, “Small molecule inhibitors of lactate dehydrogenase and methods of use thereof” (THE UNITED STATES OF AMERICA, AS REPRESENTED BY THE …, priority 2014, dated 2021).

Each structure is given as a SMILES string. Where two headings read alike, the source gives them in different places.

The experiment addresses Human LDHA (Homo sapiens (Human), UniProt P00338). Briefly: human LDHA primary biochemical assay (resazurin/diaphorase coupled, fluorescence). (Resazurin is reduced to fluorescent resorufin, in cell work by metabolically active cells.)
Setting [1] is: read-out: Inhibitory activity IC50.
Setting [2] is: LDHA inhibitory activity, activity level based on IC50 (Table 7).

The compound `NS(=O)(=O)c1ccc(Cc2c(-c3ccc(F)c(F)c3)nn(-c3nc(C(=O)O)cs3)c2O)cc1` [Compound 53, 2-(3-(3,4-difluorophenyl)-5-hydroxy-4-(4-sulfamoylbenzyl)-1H-pyrazol-1-yl)thiazole-4-carboxylic acid] showed an IC50 (LDHA inhibitory activity, assay of Example 1, activity level classes) of 0.1 to 1 µM.

In the case of `NS(=O)(=O)c1ccc(Cc2c(-c3cccc(-c4ccccc4)c3)nn(-c3nc(C(=O)O)cs3)c2O)cc1` [Compound 54, 2-(3-([1,1′-biphenyl]-3-yl)-5-hydroxy-4-(4-sulfamoylbenzyl)-1H-pyrazol-1-yl)thiazole-4-carboxylic acid], the IC50 under setting [1] lay within 0.1 to 1 µM.

Regarding `NS(=O)(=O)c1ccc(Cc2c(-c3cccc(-c4ccccc4F)c3)nn(-c3nc(C(=O)O)cs3)c2O)cc1` [Compound 55, 2-(3-(2′-fluoro-[1,1′-biphenyl]-3-yl)-5-hydroxy-4-(4-sulfamoylbenzyl)-1H-pyrazol-1-yl)thiazole-4-carboxylic acid], under setting [1], the IC50 lay in the range of 0.1 to 1 µM.

With `NS(=O)(=O)c1ccc(Cc2c(-c3cccc(Br)c3)nn(-c3nc(C(=O)O)cs3)c2O)cc1` [Compound 69, 2-(3-(3-bromophenyl)-5-hydroxy-4-(4-sulfamoylbenzyl)-1H-pyrazol-1-yl)thiazole-4-carboxylic acid], the IC50 under setting [1] lay in the range of 1 to 57 µM.

`NS(=O)(=O)c1ccc(Cc2c(-c3ccccc3)nn(-c3nc(C(=O)O)cs3)c2-c2cccnc2)cc1` [Compound 157, 2-(3-phenyl-5-(pyridin-3-yl)-4-(4-sulfamoylbenzyl)-1H-pyrazol-1-yl)thiazole-4-carboxylic acid]: the IC50 under setting [1] lay in the range of 0.1 to 1 µM.

`O=C(O)c1csc(-n2nc(-c3ccc(F)cc3)cc2C(F)(F)F)n1` [Compound 426] displayed an IC50 under setting [2] of 1 to 57 µM.

`NS(=O)(=O)c1ccc(Cc2c(-c3ccc(F)c(F)c3)nn(-c3nc(C(=O)O)cs3)c2O)cc1` [Compound 452, 2-(3-(3,4-difluorophenyl)-5-hydroxy-4-(4-sulfamoylbenzyl)-1H-pyrazol-1-yl)thiazole-4-carboxylic acid] registered an IC50 under setting [2] of 0.1 to 1 µM.

One may read the IC50 as the point on the concentration scale where inhibition reaches its midpoint.
